The results in this text go back to patent US20090105212A1, “NOVEL ADENINE COMPOUND” (priority 2005, published 2009).

Amino acid sequences for entries named in this document (tags omitted). Residues count along the entry.
UniProt Q9NYK1, 27-1049 limits assumed: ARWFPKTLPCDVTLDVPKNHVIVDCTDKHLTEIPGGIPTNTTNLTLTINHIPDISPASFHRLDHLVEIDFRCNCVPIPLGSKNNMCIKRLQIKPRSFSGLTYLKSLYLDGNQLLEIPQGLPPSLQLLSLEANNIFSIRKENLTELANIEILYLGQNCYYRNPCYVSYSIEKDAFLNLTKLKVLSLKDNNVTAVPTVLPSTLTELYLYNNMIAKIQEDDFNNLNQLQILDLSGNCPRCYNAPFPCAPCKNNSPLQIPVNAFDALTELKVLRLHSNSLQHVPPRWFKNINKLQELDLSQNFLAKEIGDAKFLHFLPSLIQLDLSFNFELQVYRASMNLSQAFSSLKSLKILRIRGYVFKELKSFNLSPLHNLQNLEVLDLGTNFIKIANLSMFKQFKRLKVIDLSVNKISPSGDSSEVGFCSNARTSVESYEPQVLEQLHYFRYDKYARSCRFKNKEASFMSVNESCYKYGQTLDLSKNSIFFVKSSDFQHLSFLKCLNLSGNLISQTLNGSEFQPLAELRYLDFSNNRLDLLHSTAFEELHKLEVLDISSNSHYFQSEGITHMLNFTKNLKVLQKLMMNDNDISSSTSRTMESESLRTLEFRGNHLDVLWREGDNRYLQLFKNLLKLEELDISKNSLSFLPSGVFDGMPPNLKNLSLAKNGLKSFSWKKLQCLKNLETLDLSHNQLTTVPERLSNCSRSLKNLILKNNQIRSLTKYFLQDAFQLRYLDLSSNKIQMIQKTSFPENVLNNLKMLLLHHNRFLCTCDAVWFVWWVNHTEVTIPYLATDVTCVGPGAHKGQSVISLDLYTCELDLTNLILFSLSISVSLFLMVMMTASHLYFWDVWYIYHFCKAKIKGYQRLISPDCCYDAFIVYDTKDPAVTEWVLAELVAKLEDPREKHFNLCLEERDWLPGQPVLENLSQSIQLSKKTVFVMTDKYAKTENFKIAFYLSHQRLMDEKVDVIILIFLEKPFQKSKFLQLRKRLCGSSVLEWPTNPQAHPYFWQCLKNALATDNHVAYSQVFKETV

This assay addresses Human TLR7 (Homo sapiens, UniProt Q9NYK1). Put plainly: Human TLR7 reporter assay (NF-kB-SEAP, HEK293 cells). The settings on record: read-out: human TLR7 binding activity (EC50); hTLR7/seap-293 cells (HEK293, NF-kB-SEAP reporter), 20 hours incubation, 1 nM-10 μM, absorbance 405 nm. As to the method: Human TLR7 Reporter Assay
Human TLR7 or rat TLR7 plasmid and reporter plasmid (NF-kB-SEAP) stably-induced HEK293 cells were suspended in DMEM media (10% […], 1% NEAA, 10 ug/mL blastocidin S HCl, 100 ug/mL Zeocin), and the suspension was seeded in 90 μl/well on 96 well plate (hTLR7/seap-293:20000 cells/well, rTLR7/seap-293:25000 cells/well).
To the cells seeded on 96 well plate was added in 10 μl/well a test compound wherein DMSO stock solution (2 μl) was hundredfold diluted with medium (200 μl) (final concentration; 1 nM-10 μM, common ratio 3). The mixture was stirred tapping in the side of the plate, and then incubated for 20 hours in CO2 incubator. To the cells stimulated by a test compound was added a substrate for reporter assay (substrate for SEAP, pNPP) by 50 μl/well. 10 minutes after the addition of substrate, a quenching solution (4N NaOH) was added by 50 μl/well, and the enzymatic reaction was quenched. Top seal A was attached on the plate, and absorbance was measured by microplate reader (405 nm).
In general terms: Reporter assays use an easily measured gene product as a stand-in for the process of interest.

The EC50 is the concentration needed to bring the measured effect to its halfway point.

As to `CCCCOc1nc(N)c2[nH]c(=O)n(Cc3ccc(OCCCCN4CCC(C(=O)O)CC4)cc3)c2n1`, the concentration giving a half-maximal response (EC50) came out at 0.03 µM.
